Reference: ChEMBL document CHEMBL3769385 (J Med Chem, 2016)

By UniProt entry, the sequences of proteins in these tests, tags left out.
UniProt P41595, whole entry: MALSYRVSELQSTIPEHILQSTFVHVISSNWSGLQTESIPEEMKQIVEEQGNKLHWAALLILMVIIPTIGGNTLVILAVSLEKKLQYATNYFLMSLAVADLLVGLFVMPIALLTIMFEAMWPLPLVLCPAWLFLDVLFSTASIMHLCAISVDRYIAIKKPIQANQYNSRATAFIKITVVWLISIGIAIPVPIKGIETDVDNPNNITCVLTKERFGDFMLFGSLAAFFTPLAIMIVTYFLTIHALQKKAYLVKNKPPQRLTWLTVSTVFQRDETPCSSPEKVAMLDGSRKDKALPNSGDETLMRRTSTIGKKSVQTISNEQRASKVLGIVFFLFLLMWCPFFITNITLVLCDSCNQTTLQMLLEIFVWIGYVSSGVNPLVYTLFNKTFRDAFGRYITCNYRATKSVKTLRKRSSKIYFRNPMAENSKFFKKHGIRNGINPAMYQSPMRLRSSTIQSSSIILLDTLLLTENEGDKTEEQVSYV
UniProt P28223, whole entry: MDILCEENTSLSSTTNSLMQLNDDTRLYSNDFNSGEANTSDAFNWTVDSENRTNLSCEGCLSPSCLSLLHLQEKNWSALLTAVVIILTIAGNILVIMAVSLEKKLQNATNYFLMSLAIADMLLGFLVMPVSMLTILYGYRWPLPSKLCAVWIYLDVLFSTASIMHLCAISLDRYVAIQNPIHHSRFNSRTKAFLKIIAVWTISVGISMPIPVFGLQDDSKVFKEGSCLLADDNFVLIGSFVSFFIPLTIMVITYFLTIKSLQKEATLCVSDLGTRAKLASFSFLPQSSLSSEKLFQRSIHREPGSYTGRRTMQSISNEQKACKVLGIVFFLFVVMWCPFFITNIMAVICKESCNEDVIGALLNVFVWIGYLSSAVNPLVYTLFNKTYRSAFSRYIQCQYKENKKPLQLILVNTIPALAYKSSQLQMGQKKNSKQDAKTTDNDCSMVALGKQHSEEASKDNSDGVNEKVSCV

Legend:
[1] = molecular target: T1, 5-hydroxytryptamine receptor 2B (Homo sapiens, UniProt P41595); assay: Agonist activity at recombinant human 5HT2B receptor expressed in Flp-In-293 cells assessed as calcium flux by FLIPR assay relative to 5-HT; format: functional, cell-based
[2] = molecular target: T2, 5-hydroxytryptamine receptor 2A (Homo sapiens, UniProt P28223); assay: Agonist activity at human 5HT2A receptor expressed in Flp-In-293 cells assessed as calcium flux by FLIPR assay relative to 5-HT; format: functional, cell-based
[3] = molecular target: T2, 5-hydroxytryptamine receptor 2A
[4] = molecular target: T2, 5-hydroxytryptamine receptor 2A; details: 10 uM
[5] = molecular target: T1, 5-hydroxytryptamine receptor 2B; assay: Agonist activity at recombinant human 5HT2B receptor expressed in Flp-In-293 cells assessed as calcium flux at 10 uM by FLIPR assay relative to 5-HT; format: functional, cell-based
[6] = molecular target: T1, 5-hydroxytryptamine receptor 2B

Row | SMILES | Emax [1] | Emax [2] | pEC50 [3] | Emax [4] | Emax [5] | pEC50 [6]
1 | C=CCOc1cc(Cl)c(Cl)cc1C1CC1CN (single isomer, unassigned; (+)) | 26% | 37% | – | – | – | –
2 | C=CCOc1cc(F)c(Cl)cc1C1CC1CN (single isomer, unassigned; (+)) | – | – | inactive | < 15% | – | –
3 | C=CCOc1ccc(Cl)c(Cl)c1C1CC1CN (single isomer, unassigned; (+)) | – | – | inactive | < 15% | < 15% | inactive
4 | C=CCOc1ccc(Cl)c(F)c1C1CC1CN (single isomer, unassigned; (+)) | – | – | inactive | < 15% | < 15% | inactive
5 | C=CCOc1ccc(F)c(Cl)c1C1CC1CN (single isomer, unassigned; (+)) | – | – | inactive | < 15% | – | –
6 | C=CCOc1ccc(F)c(F)c1C1CC1CN (single isomer, unassigned; (+)) | – | – | inactive | < 15% | – | –
7 | NCC1CC1c1c(OCCF)ccc(Cl)c1Cl (single isomer, unassigned; (+)) | – | 72% | – | – | < 15% | inactive
8 | NCC1CC1c1c(OCCF)ccc(F)c1Cl (single isomer, unassigned; (+)) | – | 39% | – | – | – | –
9 | NCC1CC1c1c(OCCF)ccc(F)c1F (single isomer, unassigned; (+)) | – | 30% | – | – | – | –
10 | NCC1CC1c1cc(Cl)c(Cl)cc1OCCF (single isomer, unassigned; (+)) | – | 58% | – | – | < 15% | inactive
11 | NCC1CC1c1cc(Cl)c(F)cc1OCCF (single isomer, unassigned; (+)) | – | 41% | – | – | – | –
12 | NCC1CC1c1cc(F)c(F)cc1OCCF (single isomer, unassigned; (+)) | 32% | 51% | – | – | – | –
13 | C=CCOc1cc(F)c(Cl)cc1C1CC1CN (single isomer, unassigned; (-)) | – | – | inactive | < 15% | – | –
14 | C=CCOc1ccc(F)c(Cl)c1C1CC1CN (single isomer, unassigned; (-)) | – | – | inactive | < 15% | < 15% | inactive
15 | C=CCOc1ccc(F)c(F)c1C1CC1CN (single isomer, unassigned; (-)) | – | – | inactive | < 15% | – | –
16 | NCC1CC1c1c(OCCF)ccc(Cl)c1Cl (single isomer, unassigned; (-)) | – | – | inactive | < 15% | < 15% | inactive
17 | NCC1CC1c1c(OCCF)ccc(Cl)c1F (single isomer, unassigned; (-)) | – | – | inactive | < 15% | < 15% | inactive
18 | NCC1CC1c1c(OCCF)ccc(F)c1F (single isomer, unassigned; (-)) | – | – | inactive | < 15% | < 15% | inactive
19 | NCC1CC1c1cc(Cl)c(Cl)cc1OCCF (single isomer, unassigned; (-)) | – | – | inactive | < 15% | < 15% | inactive
20 | NCC1CC1c1cc(F)c(F)cc1OCCF (single isomer, unassigned; (-)) | – | – | inactive | < 15% | < 15% | inactive
21 | COc1ccc(F)c(Cl)c1C1CC1CN (stereo in doubt; (+)-20g) | – | – | – | – | < 15% | inactive
22 | NCC1CC1c1c(OCCF)ccc(Cl)c1F (stereo in doubt; (+)-21d) | – | 40% | – | – | < 15% | inactive
23 | COc1cc(Cl)c(Cl)cc1C1CC1CN (stereo in doubt; (-)-20e) | – | – | – | – | < 15% | inactive
24 | NCC1CC1c1cc(Cl)c(F)cc1OCCF (stereo in doubt; (-)-21c) | – | – | inactive | < 15% | – | –
25 | NCC1CC1c1c(OCCF)ccc(F)c1Cl (stereo in doubt; (-)-21g) | – | – | inactive | < 15% | < 15% | inactive
26 | C=CCOc1ccc(Cl)c(F)c1C1CC1CN (stereo in doubt; (-)-22d) | – | 60% | – | – | < 15% | inactive
27 | C=CCOc1cc(Cl)c(Cl)cc1C1CC1CN (stereo in doubt; (-)-22e) | – | – | inactive | < 15% | < 15% | inactive
28 | C=CCOc1ccc(Cl)c(Cl)c1C1CC1CN (stereo in doubt; (-)-22f) | – | 77% | – | – | < 15% | inactive

Active and inactive are the calls of the source. The calls are words filed in the database; no cut-off is given here.
